Assay outcomes (PubChem BioAssay)
Most compounds without a hit are left out; they make up all but 1.8% or so of the library.
UUG fidelity: modulators of start codon recognition fidelity in yeast; S. cerevisiae UUG-firefly luciferase reporter, luminescence/redox ratio; AID 602363; 350,000 tested, 0.13% active; activity score, % at 18.7 µM;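 active = replicate mean at a twofold rise or more, about +100% in these data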;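 also: firefly luciferase made from a UUG start codon reports start codon fidelity; reporter light over untreated wells divided by growth signal over untreated wells; some hits fall short of that in this replicate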
RAD54 branch: inhibitors of human RAD54 branch migration, primary screen, biochemical, fluorescence, single point. DNA repair and recombination protein RAD54-like (Homo sapiens), Q92698. AID 602329, 2012. hit rate 0.14% among 360,000. inhibition, % at 10.4 µM. RAD54 Holliday junction branch migration, FAM/BHQ fluorescence;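 active = mean normalized replicate activity at least 40 and at least half of replicates scoring 40 or more; inconclusive = only one of the two criteria met; inactive = mean below 40 and under half of replicates reaching 40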;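 also: 0% = median of neutral control wells and 100% = median of positive control wells; inhibitors cause a drop in the FAM fluorescence signal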
SIRT5 inh: SIRT5 desuccinylase inhibitors, primary screen, biochemical, fluorescence imaging, single point, set 5 | NAD-dependent protein deacylase sirtuin-5, mitochondrial (Homo sapiens), Q9NXA8 | Purified SirT5, succinyl-peptide AMC, trypsin-coupled fluorescence | inhibition, % at 15 µM | hit rate 1.1% among 330,000 | AID 652115, 2013; in the data active = inhibition above about 15%; inconclusive = no clear call, values can overlap the other calls
E-selectin induc: E-selectin induction in HUVECs, primary screen, imaging, HUVEC, immunofluorescence imaging, single point. P16581. normalized: neutral wells 0, TNF-alpha wells 100. activation, % at 7.58 µM. hit rate 0.37% among 260,000;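 active = mean E-selectin-positive cell signal at least 10% of the positive control, reached in at least 60% of replicates, without over 20% cell loss; inconclusive = no rule given, readout overlaps actives, possibly toxicity-flagged; inactive = the rest, including those meeting only one limit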
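Material: HUVEC primary endothelial cells; Amount: 3,000 cells per well; Dosing: single concentration; Medium: EGM-2 growth medium on 0.1% gelatin-coated wells; Read-out basis: percent E-selectin-positive cells; Signal: immunofluorescence imaging; Control set: TNF-alpha, DMSO.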
RAD52 anneal inh: RAD52 DNA annealing inhibitors, primary screen, biochemical, FRET, single point, set 2 | DNA repair protein RAD52 homolog (Homo sapiens), P43351 | recombinant RAD52 DNA annealing, FRET fluorescence | inhibition, % at 18.7 µM | hit rate 0.46% among 360,000 | AID 651710, 2012;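 active = every replicate showing at least 50% inhibition; inconclusive = mean inhibition at least 50% but not in every replicate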
AF4-AF9 inh: inhibitors of AF4 peptide binding to AF9, primary screen, biochemical, AlphaScreen, biotin-AF4 peptide, FLAG-AF9, single point. Protein AF-9 (Homo sapiens), P42568. inhibition, % at 10 µM. hit rate 0.47% among 350,000;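 active = every replicate reaching a set inhibition limit, whatever the replicate mean, cut at about 25% in these data; inconclusive = mean inhibition reaches that limit but some replicates miss it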;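 also: 0% = plate neutral control median and 100% = total signal loss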
An asterisk follows results filed as active; ! = repeats disagree.

Amino acid sequences for entries named in this document (tags omitted).
DNA repair and recombination protein RAD54-like (Homo sapiens), Q92698, UniProt Q92698, whole entry, looked up: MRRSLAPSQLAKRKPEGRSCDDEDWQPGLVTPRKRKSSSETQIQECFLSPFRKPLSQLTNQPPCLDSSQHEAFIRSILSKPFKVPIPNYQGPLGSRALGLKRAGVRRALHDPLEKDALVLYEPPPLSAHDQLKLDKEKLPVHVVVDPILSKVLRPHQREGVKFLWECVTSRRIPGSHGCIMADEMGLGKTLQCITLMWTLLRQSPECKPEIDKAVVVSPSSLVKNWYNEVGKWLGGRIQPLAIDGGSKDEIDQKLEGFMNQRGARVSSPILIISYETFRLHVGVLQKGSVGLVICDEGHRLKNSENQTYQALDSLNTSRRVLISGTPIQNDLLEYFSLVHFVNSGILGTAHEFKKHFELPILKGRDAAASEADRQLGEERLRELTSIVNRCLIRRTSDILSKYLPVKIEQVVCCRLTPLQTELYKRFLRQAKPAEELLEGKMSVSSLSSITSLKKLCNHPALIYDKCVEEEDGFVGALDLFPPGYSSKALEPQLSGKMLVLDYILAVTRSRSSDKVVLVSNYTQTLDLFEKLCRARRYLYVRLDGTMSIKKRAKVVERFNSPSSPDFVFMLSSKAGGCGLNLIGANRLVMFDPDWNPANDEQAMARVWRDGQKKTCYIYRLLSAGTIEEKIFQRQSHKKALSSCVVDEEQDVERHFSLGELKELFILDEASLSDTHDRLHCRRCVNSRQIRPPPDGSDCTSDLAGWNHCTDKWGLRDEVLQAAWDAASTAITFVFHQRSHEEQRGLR
Protein AF-9 (Homo sapiens), P42568, UniProt P42568, whole entry, looked up: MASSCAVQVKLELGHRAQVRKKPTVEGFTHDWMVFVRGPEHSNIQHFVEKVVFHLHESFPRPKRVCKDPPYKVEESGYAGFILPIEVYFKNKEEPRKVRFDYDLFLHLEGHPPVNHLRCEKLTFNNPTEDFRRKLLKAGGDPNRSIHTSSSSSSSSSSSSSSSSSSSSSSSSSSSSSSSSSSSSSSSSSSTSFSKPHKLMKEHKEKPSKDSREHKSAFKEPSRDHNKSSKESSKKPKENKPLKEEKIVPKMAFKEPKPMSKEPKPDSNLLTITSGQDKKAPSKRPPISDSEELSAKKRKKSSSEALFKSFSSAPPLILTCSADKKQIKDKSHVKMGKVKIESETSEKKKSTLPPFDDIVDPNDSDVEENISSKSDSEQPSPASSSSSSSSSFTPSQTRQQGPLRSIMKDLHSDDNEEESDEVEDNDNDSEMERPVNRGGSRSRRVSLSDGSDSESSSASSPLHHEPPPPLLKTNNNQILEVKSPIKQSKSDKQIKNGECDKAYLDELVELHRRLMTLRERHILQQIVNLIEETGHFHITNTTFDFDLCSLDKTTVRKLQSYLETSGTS

Screening CCC(=O)Nc1ccc2c(c1)OC[C@H](C)N(CC1CCCCC1)C[C@H](C)[C@@H](OC)CN(C)C2=O returned E-selectin induc 0.2.
For COc1ccc(NC(=O)Nc2cccc3c2O[C@@H](CN(C)C(=O)NC2CCCCC2)[C@H](C)CN([C@H](C)CO)C3=O)cc1 the results were UUG fidelity 4.5, RAD54 branch 10.9, SIRT5 inh -2.1, E-selectin induc 49.2*, RAD52 anneal inh 6.0 and AF4-AF9 inh -3.0.
Screening COc1ccc(NC(=O)N(C)C[C@H]2Oc3c(NS(=O)(=O)c4cn(C)cn4)cccc3C(=O)N([C@@H](C)CO)C[C@@H]2C)cc1 returned UUG fidelity 0.9, RAD54 branch -0.6, SIRT5 inh 3.2, E-selectin induc 39.1*, RAD52 anneal inh 4.2 and AF4-AF9 inh -3.2.
Screening COc1ccc(NC(=O)N(C)C[C@@H]2Oc3c(NS(=O)(=O)c4cn(C)cn4)cccc3C(=O)N([C@@H](C)CO)C[C@H]2C)cc1 returned UUG fidelity -2.7, RAD54 branch 7.8, SIRT5 inh 5.9, E-selectin induc 27.6*, RAD52 anneal inh 1.1 and AF4-AF9 inh -2.8.
COc1ccc(NC(=O)N(C)C[C@H]2Oc3c(NS(=O)(=O)c4cn(C)cn4)cccc3C(=O)N([C@H](C)CO)C[C@H]2C)cc1 was read as UUG fidelity 9.5, RAD54 branch -0.8, SIRT5 inh 3.9, E-selectin induc inconclusive, RAD52 anneal inh 4.5 and AF4-AF9 inh -2.5.
For COc1ccc(NC(=O)N(C)C[C@H]2Oc3c(NS(C)(=O)=O)cccc3C(=O)N([C@@H](C)CO)C[C@H]2C)cc1 the results were UUG fidelity -9.1, RAD54 branch 3.1, SIRT5 inh 32.6*, RAD52 anneal inh 9.8 and AF4-AF9 inh -0.6.
`COc1ccc(S(=O)(=O)Nc2cccc3c2O[C@H](CN(C)C(=O)Nc2c(C)noc2C)[C@@H](C)CN([C@H](C)CO)C3=O)cc1` gave UUG fidelity -4.7, RAD54 branch -6.2, SIRT5 inh 0.0, E-selectin induc 40.7*!, RAD52 anneal inh 2.5 and AF4-AF9 inh -1.1.
COc1ccc2c3c(n(C)c2c1)[C@H](CO)NCC31CCN(S(=O)(=O)c2cccc(C)c2)CC1 was read as SIRT5 inh -2.8, E-selectin induc -0.3, RAD52 anneal inh 54.7* and AF4-AF9 inh 19.3.
For COc1ccc2c3c(n(C)c2c1)[C@@H](CO)NCC31CN(CC2CCOCC2)C1 the results were SIRT5 inh 1.3, E-selectin induc 0.2, RAD52 anneal inh 74.9* and AF4-AF9 inh 31.8*.
`COc1ccc2c3c(n(C)c2c1)[C@@H](CO)NCC31CCN(S(=O)(=O)c2ccc(C)cc2)CC1` gave E-selectin induc -0.4 and AF4-AF9 inh 6.2.
`COc1ccc2c3c(n(C)c2c1)[C@H](CO)N(CC1CCOCC1)CC31CN(CC2CCOCC2)C1` gave E-selectin induc -0.1, RAD52 anneal inh 0.4 and AF4-AF9 inh 7.4.
`COc1ccc2c3c(n(C)c2c1)[C@H](CO)NCC31CN(C(=O)CC2CC2)C1` gave SIRT5 inh -4.3, E-selectin induc 4.1, RAD52 anneal inh -3.4 and AF4-AF9 inh -4.0.
COc1ccc2c3c(n(C)c2c1)[C@H](CO)NCC31CN(CC2CC2)C1 was read as SIRT5 inh -4.5, E-selectin induc 1.3, RAD52 anneal inh 61.7* and AF4-AF9 inh 19.4.
Screening CCCNC(=O)Nc1ccc2c(c1)C(=O)N(C)[C@H]1CC[C@H](CC(=O)NCC3CCCCC3)O[C@H]1CO2 returned UUG fidelity -5.7, RAD54 branch 4.7, SIRT5 inh -0.8, E-selectin induc 0.0, RAD52 anneal inh -4.0 and AF4-AF9 inh -5.3.
C[C@H](CO)N1C[C@H](C)[C@H](CN(C)C(=O)Nc2ccccc2)OCCCC[C@H](C)Oc2ccc(NC(=O)c3ccncc3)cc2C1=O was read as UUG fidelity 7.8, RAD54 branch -0.3, SIRT5 inh -8.8, RAD52 anneal inh -16.0 and AF4-AF9 inh -1.2.

3 compounds already listed, arranged by SMILES length, descending.
`COc1ccc(S(=O)(=O)Nc2cccc3c2O[C@H](CN(C)C(=O)Nc2c(C)noc2C)[C@@H](C)CN([C@H](C)CO)C3=O)cc1` gave UUG fidelity -4.7, RAD54 branch -6.2, SIRT5 inh 0.0, E-selectin induc 40.7*!, RAD52 anneal inh 2.5 and AF4-AF9 inh -1.1.
`COc1ccc2c3c(n(C)c2c1)[C@H](CO)NCC31CN(C(=O)CC2CC2)C1` gave SIRT5 inh -4.3, E-selectin induc 4.1, RAD52 anneal inh -3.4 and AF4-AF9 inh -4.0.
For COc1ccc2c3c(n(C)c2c1)[C@@H](CO)NCC31CN(CC2CCOCC2)C1 the results were SIRT5 inh 1.3, E-selectin induc 0.2, RAD52 anneal inh 74.9* and AF4-AF9 inh 31.8*.
